The term Ki denotes the equilibrium dissociation constant of an inhibitor or competing ligand from its target. Read a high Ki as lower affinity.

The chains behind the UniProt entries cited, without tags or fusion partners. Where a name states a change or a piece, a line headed by the entry shows the natural chain unless it says otherwise.
UniProt P18901, whole entry: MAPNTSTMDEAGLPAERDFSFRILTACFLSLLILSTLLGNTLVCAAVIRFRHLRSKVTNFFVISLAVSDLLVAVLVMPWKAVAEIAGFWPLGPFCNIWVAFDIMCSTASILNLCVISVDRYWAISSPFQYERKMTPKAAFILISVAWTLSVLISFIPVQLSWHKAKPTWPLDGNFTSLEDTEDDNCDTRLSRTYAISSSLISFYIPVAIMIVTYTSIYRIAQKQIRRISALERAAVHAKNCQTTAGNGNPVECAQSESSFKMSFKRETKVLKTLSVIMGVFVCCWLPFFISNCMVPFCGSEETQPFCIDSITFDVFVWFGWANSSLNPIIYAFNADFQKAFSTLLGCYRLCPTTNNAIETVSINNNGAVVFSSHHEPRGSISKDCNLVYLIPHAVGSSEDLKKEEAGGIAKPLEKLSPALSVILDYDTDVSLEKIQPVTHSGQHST
UniProt P30994: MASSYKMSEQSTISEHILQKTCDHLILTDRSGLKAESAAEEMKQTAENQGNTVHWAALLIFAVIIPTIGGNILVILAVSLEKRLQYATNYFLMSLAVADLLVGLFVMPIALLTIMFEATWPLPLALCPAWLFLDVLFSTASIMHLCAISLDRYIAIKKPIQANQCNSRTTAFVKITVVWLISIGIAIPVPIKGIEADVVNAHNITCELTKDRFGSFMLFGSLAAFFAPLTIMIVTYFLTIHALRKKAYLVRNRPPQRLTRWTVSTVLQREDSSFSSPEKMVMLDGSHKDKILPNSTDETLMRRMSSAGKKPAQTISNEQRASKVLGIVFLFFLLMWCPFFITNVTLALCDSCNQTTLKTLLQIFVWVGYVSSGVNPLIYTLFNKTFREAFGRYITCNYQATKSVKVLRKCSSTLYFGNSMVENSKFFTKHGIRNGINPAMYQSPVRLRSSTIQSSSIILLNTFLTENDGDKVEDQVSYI
UniProt P08909: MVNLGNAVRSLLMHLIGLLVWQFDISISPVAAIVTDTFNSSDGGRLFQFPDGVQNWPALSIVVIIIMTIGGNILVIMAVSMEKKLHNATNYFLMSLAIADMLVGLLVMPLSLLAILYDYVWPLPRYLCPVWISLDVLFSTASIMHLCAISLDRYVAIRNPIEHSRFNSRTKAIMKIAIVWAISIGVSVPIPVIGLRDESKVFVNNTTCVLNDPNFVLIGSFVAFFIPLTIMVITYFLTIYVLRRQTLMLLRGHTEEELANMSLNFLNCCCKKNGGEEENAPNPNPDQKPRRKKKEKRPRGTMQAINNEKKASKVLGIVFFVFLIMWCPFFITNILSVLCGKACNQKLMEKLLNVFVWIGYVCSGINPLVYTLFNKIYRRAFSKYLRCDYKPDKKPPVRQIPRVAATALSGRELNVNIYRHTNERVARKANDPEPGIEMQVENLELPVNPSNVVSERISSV
UniProt P14842: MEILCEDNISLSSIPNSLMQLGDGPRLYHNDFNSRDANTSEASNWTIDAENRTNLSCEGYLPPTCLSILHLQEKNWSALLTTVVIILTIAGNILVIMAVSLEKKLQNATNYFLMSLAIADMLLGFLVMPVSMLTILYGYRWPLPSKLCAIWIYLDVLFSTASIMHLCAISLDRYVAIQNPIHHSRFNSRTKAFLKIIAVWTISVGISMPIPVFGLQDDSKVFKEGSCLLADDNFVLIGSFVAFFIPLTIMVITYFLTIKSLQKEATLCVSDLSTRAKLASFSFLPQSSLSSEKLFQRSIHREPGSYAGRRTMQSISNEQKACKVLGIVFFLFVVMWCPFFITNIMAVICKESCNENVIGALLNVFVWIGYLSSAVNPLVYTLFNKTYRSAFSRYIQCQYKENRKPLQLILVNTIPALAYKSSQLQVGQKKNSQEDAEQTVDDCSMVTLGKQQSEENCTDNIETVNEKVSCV

The record followed here is ChEMBL document CHEMBL1131586, “New antipsychotic agents with serotonin and dopamine antagonist properties based on a pyrrolo[2,1-b][1,3]benzothiazepine structure” (J Med Chem, 1998).

In one experiment the target is D(1A) dopamine receptor (Rattus norvegicus, UniProt P18901).
Experiment [1] concerns the target Serotonin 2 (5-HT2) receptor (Rattus norvegicus, UniProt P30994+P08909+P14842).

At D(1A) dopamine receptor, `CN1CCN(C2Cn3cccc3Sc3ccc(Cl)cc32)CC1` (racemic) had an inhibitory constant (Ki) of 0.0251 µM. Further, the “Log Ki” value in experiment [1] was -8.9.

On to `CN1CCN(C2Cn3cccc3Sc3ccc(Cl)cc32)CC1` (stereo in doubt; (+)3b), for which the “Log Ki” value in experiment [1] is recorded as -8.8.

Regarding `CN1CCN(C2Cn3cccc3Sc3ccc(Cl)cc32)CC1` (stereo in doubt; (-)3b), at D(1A) dopamine receptor, the Ki was 0.02 µM. Further, the “Log Ki” value in experiment [1] is -8.7.
